Counter-ions that a name gives are not always drawn.
Tests used:
[1] = system: Asian patients with advanced HCC; test: Phase 1b dose escalation: DLTs and adverse events
advanced HCC = test: Phase 1b tumour response per RECIST v1.1; type: in vivo, human
Description: In Phase 2, the primary endpoint was independent review committee (IRC)-assessed time to progression (TTP) per Response Evaluation Criteria in Solid Tumors (RECIST) v1.1. Secondary endpoints included investigator-assessed TTP, IRC- and investigator-assessed progression-free survival (PFS), objective response rate (ORR), disease control rate, OS and safety. In both phases, tumour assessments were performed according to RECIST v1.1 based on scans taken at the end of every second cycle until Cycle 13, and every four cycles thereafter.

`CN1CCC(COc2cnc(-c3cccc(Cn4nc(-c5cccc(C#N)c5)ccc4=O)c3)nc2)CC1` [Tepotinib, tepotinib hydrochloride hydrate] was tested, and the “patients with Grade ≥3 AEs of any cause” value [1] was 55.6%, the disease control rate (advanced HCC; Phase 1b, 500 mg cohort) was 50% and the disease control rate (advanced HCC; Phase 1b, 1,000 mg cohort) was 50%.
